The text below walks through data of ChEMBL document CHEMBL1909046, “DrugMatrix in vitro pharmacology data”.

The chains behind the UniProt entries cited, without tags or fusion partners. Where a name states a change or a piece, a line headed by the entry shows the natural chain unless it says otherwise.
UniProt P18825, whole entry: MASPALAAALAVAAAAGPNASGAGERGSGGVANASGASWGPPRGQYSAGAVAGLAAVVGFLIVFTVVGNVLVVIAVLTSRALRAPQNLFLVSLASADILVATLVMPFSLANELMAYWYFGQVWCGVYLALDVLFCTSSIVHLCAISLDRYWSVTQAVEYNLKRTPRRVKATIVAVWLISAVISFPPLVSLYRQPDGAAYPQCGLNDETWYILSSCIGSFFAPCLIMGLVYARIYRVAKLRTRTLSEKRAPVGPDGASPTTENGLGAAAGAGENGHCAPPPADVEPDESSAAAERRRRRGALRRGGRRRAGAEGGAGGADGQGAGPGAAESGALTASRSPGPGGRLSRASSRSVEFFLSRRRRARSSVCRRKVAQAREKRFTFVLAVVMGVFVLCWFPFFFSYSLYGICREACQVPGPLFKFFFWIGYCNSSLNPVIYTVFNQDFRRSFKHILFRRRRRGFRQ
UniProt P08913, whole entry: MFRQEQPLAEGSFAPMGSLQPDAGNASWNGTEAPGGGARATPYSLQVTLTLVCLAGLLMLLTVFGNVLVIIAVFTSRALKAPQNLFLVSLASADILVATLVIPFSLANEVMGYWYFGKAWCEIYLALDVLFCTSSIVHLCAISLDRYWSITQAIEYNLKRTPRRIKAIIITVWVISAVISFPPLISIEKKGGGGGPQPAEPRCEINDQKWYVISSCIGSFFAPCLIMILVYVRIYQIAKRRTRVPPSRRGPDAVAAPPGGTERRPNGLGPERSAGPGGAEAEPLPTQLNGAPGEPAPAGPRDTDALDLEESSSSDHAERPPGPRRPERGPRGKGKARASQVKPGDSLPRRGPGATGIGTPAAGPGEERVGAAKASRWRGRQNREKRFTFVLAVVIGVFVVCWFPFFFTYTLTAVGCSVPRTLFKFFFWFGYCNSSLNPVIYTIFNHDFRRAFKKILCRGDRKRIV
UniProt P11712, whole entry: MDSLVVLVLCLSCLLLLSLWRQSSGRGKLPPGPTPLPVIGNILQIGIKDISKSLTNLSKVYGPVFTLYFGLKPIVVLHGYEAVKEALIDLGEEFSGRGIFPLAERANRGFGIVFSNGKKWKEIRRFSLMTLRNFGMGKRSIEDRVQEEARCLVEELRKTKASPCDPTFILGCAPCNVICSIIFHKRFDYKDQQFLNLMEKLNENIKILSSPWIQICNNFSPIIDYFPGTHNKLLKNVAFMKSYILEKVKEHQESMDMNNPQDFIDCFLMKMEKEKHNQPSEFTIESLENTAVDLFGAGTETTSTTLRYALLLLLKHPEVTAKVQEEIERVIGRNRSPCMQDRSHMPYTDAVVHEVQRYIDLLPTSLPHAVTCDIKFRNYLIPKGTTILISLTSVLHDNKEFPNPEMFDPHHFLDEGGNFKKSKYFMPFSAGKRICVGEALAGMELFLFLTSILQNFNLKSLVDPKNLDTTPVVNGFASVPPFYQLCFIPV
UniProt Q12809: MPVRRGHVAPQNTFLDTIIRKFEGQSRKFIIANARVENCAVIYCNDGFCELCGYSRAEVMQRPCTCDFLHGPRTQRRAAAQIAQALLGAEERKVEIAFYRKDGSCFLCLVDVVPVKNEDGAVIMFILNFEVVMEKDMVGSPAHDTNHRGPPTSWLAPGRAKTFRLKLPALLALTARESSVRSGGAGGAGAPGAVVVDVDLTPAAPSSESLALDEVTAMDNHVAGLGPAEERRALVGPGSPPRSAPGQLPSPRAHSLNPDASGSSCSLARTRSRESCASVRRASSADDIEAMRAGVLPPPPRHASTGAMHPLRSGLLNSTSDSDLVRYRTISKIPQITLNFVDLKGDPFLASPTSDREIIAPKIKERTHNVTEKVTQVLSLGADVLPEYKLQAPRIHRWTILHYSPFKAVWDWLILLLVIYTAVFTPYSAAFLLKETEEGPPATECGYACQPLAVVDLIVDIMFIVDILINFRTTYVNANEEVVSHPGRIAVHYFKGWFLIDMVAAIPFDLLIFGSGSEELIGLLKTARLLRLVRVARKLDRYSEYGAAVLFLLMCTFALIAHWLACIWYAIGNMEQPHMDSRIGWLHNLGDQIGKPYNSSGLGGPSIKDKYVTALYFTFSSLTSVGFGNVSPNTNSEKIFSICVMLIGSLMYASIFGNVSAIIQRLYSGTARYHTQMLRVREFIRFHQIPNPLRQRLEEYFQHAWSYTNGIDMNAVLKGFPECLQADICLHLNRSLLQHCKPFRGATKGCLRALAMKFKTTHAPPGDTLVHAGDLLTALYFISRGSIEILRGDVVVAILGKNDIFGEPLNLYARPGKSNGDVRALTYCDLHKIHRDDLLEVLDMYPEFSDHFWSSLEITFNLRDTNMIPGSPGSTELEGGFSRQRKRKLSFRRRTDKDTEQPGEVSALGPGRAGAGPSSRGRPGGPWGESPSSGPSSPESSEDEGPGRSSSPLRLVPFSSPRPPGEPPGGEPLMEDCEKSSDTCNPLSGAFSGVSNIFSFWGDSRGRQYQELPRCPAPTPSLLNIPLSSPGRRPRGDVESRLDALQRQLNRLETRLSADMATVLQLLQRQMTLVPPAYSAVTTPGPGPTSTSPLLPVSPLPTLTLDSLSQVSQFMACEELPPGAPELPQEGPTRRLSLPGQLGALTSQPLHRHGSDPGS
UniProt P15823, whole entry: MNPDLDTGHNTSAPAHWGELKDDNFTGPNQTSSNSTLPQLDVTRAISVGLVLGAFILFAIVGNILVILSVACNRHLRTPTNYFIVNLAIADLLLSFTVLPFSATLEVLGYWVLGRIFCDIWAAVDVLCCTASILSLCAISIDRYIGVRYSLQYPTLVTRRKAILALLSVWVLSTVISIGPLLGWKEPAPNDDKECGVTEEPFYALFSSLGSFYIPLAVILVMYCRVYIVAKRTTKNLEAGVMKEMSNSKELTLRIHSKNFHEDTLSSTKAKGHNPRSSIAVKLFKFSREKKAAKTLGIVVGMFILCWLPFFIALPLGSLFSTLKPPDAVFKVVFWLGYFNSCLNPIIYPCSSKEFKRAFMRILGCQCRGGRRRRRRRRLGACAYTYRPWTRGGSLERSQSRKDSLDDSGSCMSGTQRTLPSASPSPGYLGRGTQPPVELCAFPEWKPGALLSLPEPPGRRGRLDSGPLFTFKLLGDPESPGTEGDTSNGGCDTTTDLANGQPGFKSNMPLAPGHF
UniProt P35462, whole entry: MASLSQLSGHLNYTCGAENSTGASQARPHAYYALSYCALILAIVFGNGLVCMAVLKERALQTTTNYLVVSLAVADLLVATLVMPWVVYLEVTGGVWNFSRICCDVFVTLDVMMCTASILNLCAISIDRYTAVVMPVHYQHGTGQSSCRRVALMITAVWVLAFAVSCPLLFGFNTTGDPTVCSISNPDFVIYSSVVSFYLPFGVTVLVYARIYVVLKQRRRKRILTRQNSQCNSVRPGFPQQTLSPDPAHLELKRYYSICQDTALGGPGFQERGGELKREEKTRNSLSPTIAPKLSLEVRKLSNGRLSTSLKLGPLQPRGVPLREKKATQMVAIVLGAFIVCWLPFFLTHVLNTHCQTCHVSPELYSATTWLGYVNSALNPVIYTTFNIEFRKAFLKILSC
UniProt P21397, whole entry: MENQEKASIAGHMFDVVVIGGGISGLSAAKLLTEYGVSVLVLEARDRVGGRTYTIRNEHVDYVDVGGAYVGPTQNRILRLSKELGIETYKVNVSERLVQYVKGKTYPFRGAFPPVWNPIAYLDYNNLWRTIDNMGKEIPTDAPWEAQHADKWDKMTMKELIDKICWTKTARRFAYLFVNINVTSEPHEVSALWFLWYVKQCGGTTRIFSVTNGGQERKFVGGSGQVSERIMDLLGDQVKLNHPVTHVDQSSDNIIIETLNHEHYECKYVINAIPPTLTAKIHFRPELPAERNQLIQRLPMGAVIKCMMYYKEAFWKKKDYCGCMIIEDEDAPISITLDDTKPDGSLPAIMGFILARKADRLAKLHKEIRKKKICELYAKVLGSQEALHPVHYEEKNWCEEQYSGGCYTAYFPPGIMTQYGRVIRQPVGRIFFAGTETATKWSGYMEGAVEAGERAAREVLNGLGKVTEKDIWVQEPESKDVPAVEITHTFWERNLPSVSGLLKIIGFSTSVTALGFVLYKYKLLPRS
UniProt P23219, whole entry: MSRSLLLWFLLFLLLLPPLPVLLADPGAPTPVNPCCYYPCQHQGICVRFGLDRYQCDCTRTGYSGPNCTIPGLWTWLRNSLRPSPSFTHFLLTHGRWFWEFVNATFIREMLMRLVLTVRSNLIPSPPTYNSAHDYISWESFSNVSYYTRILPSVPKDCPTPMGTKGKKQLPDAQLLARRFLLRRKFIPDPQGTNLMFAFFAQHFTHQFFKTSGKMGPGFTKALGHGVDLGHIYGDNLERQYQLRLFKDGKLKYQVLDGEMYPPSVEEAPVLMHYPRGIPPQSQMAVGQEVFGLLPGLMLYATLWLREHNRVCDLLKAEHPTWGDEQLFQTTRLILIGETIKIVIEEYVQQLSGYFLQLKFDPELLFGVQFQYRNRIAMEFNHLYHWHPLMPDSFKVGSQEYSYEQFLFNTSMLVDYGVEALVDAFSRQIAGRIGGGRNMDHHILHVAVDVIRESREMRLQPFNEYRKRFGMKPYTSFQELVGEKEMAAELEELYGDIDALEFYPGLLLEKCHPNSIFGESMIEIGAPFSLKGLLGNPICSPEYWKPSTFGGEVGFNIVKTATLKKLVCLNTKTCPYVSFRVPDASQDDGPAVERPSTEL
UniProt P05177, whole entry: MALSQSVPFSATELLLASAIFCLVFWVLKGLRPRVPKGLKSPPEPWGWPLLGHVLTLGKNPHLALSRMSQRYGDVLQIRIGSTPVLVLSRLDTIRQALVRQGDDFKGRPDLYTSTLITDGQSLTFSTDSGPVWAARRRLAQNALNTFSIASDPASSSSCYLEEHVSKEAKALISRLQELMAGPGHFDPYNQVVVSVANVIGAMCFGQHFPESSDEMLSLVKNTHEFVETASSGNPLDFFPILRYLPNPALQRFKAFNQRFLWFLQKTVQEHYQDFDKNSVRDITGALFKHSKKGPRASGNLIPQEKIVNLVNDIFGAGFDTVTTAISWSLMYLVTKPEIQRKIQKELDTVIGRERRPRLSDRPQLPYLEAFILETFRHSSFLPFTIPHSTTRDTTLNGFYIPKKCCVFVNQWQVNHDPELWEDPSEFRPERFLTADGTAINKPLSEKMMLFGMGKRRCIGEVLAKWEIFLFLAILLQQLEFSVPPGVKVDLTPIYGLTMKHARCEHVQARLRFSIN
UniProt P22303: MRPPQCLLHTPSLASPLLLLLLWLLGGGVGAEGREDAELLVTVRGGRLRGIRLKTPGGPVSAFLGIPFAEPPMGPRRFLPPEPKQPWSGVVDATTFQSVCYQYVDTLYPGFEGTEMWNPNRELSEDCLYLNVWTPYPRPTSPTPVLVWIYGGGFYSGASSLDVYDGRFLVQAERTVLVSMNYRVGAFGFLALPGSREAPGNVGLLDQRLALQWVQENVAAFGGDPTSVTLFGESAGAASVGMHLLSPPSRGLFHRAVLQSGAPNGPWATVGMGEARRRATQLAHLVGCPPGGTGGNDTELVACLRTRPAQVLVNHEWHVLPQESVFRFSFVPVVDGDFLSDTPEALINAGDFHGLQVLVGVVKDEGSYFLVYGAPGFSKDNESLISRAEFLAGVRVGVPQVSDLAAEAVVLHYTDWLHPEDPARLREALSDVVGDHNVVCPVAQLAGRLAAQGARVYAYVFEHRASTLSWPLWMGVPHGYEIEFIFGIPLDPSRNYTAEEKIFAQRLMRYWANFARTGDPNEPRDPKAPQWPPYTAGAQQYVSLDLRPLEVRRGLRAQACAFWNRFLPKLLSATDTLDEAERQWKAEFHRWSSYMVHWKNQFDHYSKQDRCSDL
UniProt P08588, whole entry: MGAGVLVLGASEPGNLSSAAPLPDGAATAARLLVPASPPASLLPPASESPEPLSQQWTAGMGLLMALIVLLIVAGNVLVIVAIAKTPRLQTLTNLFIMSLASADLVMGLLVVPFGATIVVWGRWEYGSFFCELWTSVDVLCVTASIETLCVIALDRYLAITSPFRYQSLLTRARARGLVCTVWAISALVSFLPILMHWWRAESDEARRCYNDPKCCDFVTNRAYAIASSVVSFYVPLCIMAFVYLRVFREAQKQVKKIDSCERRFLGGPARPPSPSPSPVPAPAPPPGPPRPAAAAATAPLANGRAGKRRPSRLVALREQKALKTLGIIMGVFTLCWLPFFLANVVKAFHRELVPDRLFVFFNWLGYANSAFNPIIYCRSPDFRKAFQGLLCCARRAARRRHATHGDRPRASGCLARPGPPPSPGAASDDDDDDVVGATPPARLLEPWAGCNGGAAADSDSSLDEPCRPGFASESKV

The term IC50 denotes the concentration at which inhibition is half-maximal. Lower therefore signals greater potency in that assay. As a reminder, the Ki is a measure of affinity in units of concentration, obtained from inhibition or displacement.

Experiment [1] addresses T1, 3-hydroxy-3-methylglutaryl-coenzyme A reductase (Homo sapiens, UniProt P04035).
T1 sequence (P04035 whole entry): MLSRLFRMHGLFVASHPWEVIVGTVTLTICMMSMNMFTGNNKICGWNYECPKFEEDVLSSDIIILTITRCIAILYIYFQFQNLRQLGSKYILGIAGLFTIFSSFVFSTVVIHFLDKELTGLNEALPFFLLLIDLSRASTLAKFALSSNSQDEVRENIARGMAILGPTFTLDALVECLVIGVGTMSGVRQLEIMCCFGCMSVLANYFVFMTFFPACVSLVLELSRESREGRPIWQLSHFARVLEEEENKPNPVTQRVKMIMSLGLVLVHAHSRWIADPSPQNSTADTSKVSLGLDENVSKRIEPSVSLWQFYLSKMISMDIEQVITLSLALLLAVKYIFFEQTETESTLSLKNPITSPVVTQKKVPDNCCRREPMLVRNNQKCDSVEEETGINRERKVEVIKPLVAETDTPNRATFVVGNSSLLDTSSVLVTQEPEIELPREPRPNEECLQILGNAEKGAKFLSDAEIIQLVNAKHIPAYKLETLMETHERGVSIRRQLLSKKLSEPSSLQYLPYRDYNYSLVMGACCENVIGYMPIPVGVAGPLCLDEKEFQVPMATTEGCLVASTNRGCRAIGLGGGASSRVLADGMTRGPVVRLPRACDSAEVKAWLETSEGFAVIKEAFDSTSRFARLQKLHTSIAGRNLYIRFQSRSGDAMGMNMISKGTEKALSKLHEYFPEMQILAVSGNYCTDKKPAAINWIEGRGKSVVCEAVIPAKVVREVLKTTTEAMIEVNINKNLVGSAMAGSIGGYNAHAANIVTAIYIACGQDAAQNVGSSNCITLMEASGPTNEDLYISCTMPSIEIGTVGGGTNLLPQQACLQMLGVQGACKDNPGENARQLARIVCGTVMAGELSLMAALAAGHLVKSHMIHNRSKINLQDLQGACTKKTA
Further details: species or system Escherichia coli.

Experiment [2] concerns the target Alpha-2C adrenergic receptor (Homo sapiens, UniProt P18825). The experiment is described as follows: DRUGMATRIX: Adrenergic Alpha-2C radioligand binding (ligand: [3H] MK-912). The format is cell membranes, Sf9, Membrane.
Experiment [3] addresses Alpha-2A adrenergic receptor (Homo sapiens, UniProt P08913). The format is cell membranes, Sf9, Membrane.
Experiment [4] concerns the target Cytochrome P450 2D6 (Homo sapiens, UniProt P10635). Also: in other assays of this panel Not Active means under 50% inhibition at 10 µM.
Experiment [5] has as its target Cytochrome P450 2C9 (Homo sapiens, UniProt P11712). Also: in other assays of this panel Not Active means under 50% inhibition at 10 µM.
Experiment [6] addresses Voltage-gated inwardly rectifying potassium channel KCNH2 (Homo sapiens, UniProt Q12809).
The target in experiment [7] is Alpha-1B adrenergic receptor (Rattus norvegicus, UniProt P15823). The experiment is described as follows: DRUGMATRIX: Alpha-1B adrenergic receptor radioligand binding (ligand: prazosin). It counts as cell membranes, Wistar, Liver, Membrane. Particulars: Not Active = under 50% inhibition at 10 µM.
The target of experiment [8] is T2, Alpha-1A adrenergic receptor (Rattus norvegicus, UniProt P43140).
T2 sequence (P43140 whole entry): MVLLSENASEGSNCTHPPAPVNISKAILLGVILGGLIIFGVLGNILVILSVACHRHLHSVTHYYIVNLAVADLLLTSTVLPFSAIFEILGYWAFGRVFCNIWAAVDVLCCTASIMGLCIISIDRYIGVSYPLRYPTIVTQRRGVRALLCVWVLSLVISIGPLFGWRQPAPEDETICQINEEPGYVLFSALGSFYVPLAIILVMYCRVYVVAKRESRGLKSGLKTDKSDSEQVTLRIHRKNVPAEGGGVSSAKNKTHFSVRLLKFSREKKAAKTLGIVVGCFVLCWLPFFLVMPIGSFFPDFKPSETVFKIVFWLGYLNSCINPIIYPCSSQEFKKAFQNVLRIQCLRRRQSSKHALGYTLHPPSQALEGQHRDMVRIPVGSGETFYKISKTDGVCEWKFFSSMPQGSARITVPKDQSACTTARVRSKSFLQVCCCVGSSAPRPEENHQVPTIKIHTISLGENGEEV
The experiment can be described thus: DRUGMATRIX: Alpha-1A adrenergic receptor radioligand binding (ligand: prazosin). Particulars: Not Active = under 50% inhibition at 10 µM. The format is cell membranes, Wistar, Submaxillary gland, Membrane.

The target in experiment [9] is D(3) dopamine receptor (Homo sapiens, UniProt P35462). The experiment can be described thus: DRUGMATRIX: Dopamine D3 radioligand binding (ligand: [3H] Spiperone). The format is cell membranes, CHO, Membrane.
Experiment [10] deals with Amine oxidase [flavin-containing] A (Homo sapiens, UniProt P21397). The experiment can be described thus: DRUGMATRIX: Monoamine Oxidase MAO-A enzyme inhibition (substrate: Kynuramine). The arrangement: species or system BTI-TN-5B1-4. The following applies: Not Active = under 50% inhibition at 10 µM.
Experiment [11] deals with Prostaglandin G/H synthase 1 (Homo sapiens, UniProt P23219). The experiment is described as follows: biochemical. It counts as tissue-based, Platelet.
In experiment [12] the target is Cytochrome P450 1A2 (Homo sapiens, UniProt P05177). Also: in other assays of this panel Not Active means under 50% inhibition at 10 µM.
The target of experiment [13] is Acetylcholinesterase (Homo sapiens, UniProt P22303). The experiment can be described thus: DRUGMATRIX: Acetylcholinesterase enzyme inhibition (substrate: acetylthiocholine). It counts as cell-based, HEK293. Particulars: Not Active = under 50% inhibition at 10 µM.
Experiment [14] has as its target Beta-1 adrenergic receptor (Homo sapiens, UniProt P08588). The experiment can be described thus: DRUGMATRIX: Adrenergic beta1 radioligand binding (ligand: [125I] Cyanopindolol). It counts as cell membranes, CHO-K1, Membrane. Particulars: Not Active = under 50% inhibition at 10 µM.
For experiment [15], the target named is Receptor tyrosine-protein kinase erbB-2 (Homo sapiens, UniProt P04626). It counts as cell-based. Particulars: insect cells.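 Also: inhibition of HER2 kinase enzyme activity, measured with Poly(Glu:Tyr) as the phosphorylation substrate; in other assays of this panel Not Active means under 50% inhibition at 10 µM.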

In experiment [1], `CC(C)c1c(C(=O)Nc2ccccc2)c(-c2ccccc2)c(-c2ccc(F)cc2)n1CC[C@@H](O)C[C@@H](O)CC(=O)O` [ATORVASTATIN] registered an IC50 of 0.227 nM. In other words, the sub-nanomolar range.

For the compound `CC(C)C[C@H]1C(=O)N2CCC[C@H]2[C@]2(O)O[C@](NC(=O)[C@@H]3C=C4c5cccc6[nH]c(Br)c(c56)C[C@H]4N(C)C3)(C(C)C)C(=O)N12` [BROMOCRIPTINE], in experiment [2], the IC50 is 520 nM and affinity was put at a Ki of 76 nM. In [3], this compound had an IC50 of 15 nM and a Ki of 5.53 nM.

`COc1cc(N)c(Cl)cc1C(=O)NC1CCN(CCCOc2ccc(F)cc2)CC1OC` (configuration not stated) [CISAPRIDE] showed an IC50 in experiment [4] of 70 nM. This counts as double-digit nanomolar.

`C#C[C@]1(O)CC[C@H]2[C@@H]3CCC4=Cc5oncc5C[C@]4(C)[C@H]3CC[C@@]21C` [DANAZOL] yielded an IC50 in experiment [5] of 300 nM.

For the compound `CNCCCN1c2ccccc2CCc2ccccc21` [DESIPRAMINE], in [6], half-maximal inhibition (IC50) required 27800 nM and the affinity corresponds to a Ki of 22800 nM.

In experiment [7], `CNC[C@H](O)c1ccc(O)c(O)c1` [EPINEPHRINE] registered an IC50 of 1770 nM and a Ki of 977 nM. Further, in [8], the IC50 came out at 628 nM and the Ki amounted to 254 nM.

In [9], `CCN1CCC[C@H]1CNC(=O)c1cc(S(N)(=O)=O)ccc1OC` [LEVOSULPIRIDE] registered an IC50 of 123 nM and a Ki of 42 nM.

`COc1ccc2cc(CCC(C)=O)ccc2c1` [NABUMETONE] came in with an IC50 in experiment [10] of 998 nM.

Consider `O=C(O)c1cccnc1Nc1cccc(C(F)(F)F)c1` [NIFLUMIC ACID], for which half-maximal inhibition in experiment [11] (IC50) was put at 1060 nM.

The compound `O=C(O)CCc1nc(-c2ccccc2)c(-c2ccccc2)o1` [OXAPROZIN] showed an IC50 in experiment [11] of 856 nM. The IC50 values of the last two compounds are within 1.5-fold of each other.

In turn, `NNCCc1ccccc1` [PHENELZINE] returned an IC50 in experiment [10] of 146 nM.

`CC[C@H](C)C(=O)O[C@H]1C[C@H](O)C=C2C=C[C@H](C)[C@H](CC[C@@H](O)C[C@@H](O)CC(=O)O)[C@H]21` [PRAVASTATIN] registered an IC50 in [1] of 5.59 nM.

`COc1cc(NC(C)CCCN)c2ncccc2c1` (configuration not stated) [PRIMAQUINE] had an IC50 in experiment [12] of 182 nM.

Take `CCN(CC)CCCC(C)Nc1c2ccc(Cl)cc2nc2ccc(OC)cc12` (configuration not stated) [QUINACRINE]: inhibition in experiment [13] was half-maximal at 2670 nM (IC50).

For `CC(C)NCC(O)c1ccc(NS(C)(=O)=O)cc1` (configuration not stated) [SOTALOL], in experiment [14], the 50% inhibitory concentration (IC50) is 1440 nM and affinity was put at a Ki of 833 nM.

For the compound `CCN1CCCC1CNC(=O)c1cc(S(N)(=O)=O)ccc1OC` (configuration not stated) [SULPIRIDE], in experiment [9], the IC50 is 169 nM and affinity was put at a Ki of 57 nM.

Consider CADMIUM DICHLORIDE, for which half-maximal inhibition in experiment [15] (IC50) required 1330 nM.
